Measured values taken from US9133120B2.

Protein sequences, listed by entry. Tags and fused reporters are not part of them.
UniProt P33535, whole entry, looked up: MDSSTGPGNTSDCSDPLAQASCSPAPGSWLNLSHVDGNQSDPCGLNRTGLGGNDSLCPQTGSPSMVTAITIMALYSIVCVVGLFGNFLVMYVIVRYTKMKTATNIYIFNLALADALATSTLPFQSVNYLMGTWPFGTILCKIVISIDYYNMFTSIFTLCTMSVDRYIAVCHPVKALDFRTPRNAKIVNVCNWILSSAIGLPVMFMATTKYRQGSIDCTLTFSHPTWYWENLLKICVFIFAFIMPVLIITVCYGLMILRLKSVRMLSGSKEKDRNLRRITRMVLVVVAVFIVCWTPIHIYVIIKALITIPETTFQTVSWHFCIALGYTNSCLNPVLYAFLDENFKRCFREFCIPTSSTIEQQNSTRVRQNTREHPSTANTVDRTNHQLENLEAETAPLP

Molecular target: Wild-type mu-receptors (Rattus norvegicus, UniProt P33535)
Assay: Suppression of FSK/IBMX-stimulated cAMP accumulation (cAMP ELISA) in transfected HEK-293 cells
Settings: for suppression of FSK/IBMX-stimulated cAMP formation: pH 5.0 compared to pH 7.5; for cAMP (% baseline): 10 μM agonist, FSK/IBMX-stimulated

Row | Structure (SMILES) | suppression of FSK/IBMX-stimulated cAMP formation | cAMP (% baseline) (pH 5.0) | cAMP (% baseline) (pH 6.5) | cAMP (% baseline) (pH 7.5)
1 | C[C@@H](NC(=O)[C@@H](N)Cc1ccc(O)cc1)C(=O)NCC(=O)N(C)[C@@H](Cc1ccccc1)C(=O)NCCO | markedly stronger at pH 5.0 than at pH 7.5 | – | – | –
2 | CN1CC[C@]23c4c5ccc(O)c4O[C@H]2[C@@H](O)C=C[C@H]3[C@H]1C5 | markedly stronger at pH 5.0 than at pH 7.5 | 46 ± 11 % baseline | 64 ± 13 % baseline | 80 ± 10 % baseline
